In ChEMBL document CHEMBL1136541, “D-Phe-Pro-Arg type thrombin inhibitors: unexpected selectivity by modification of the P1 moiety” (Bioorg Med Chem Lett, 2003):

Biological target: Prothrombin (Homo sapiens, UniProt P00734)
Assay: In vitro inhibitory activity against thrombin

| SMILES | IC50 [nM] |
| --- | --- |
| Cn1c(CNC(=O)[C@@H]2C=CCN2C(=O)[C@@H](CC2CCCCC2)NCC(=O)O)ccc1C(=N)N | 6.2 |
| Cn1cc(CNC(=O)[C@@H]2C=CCN2C(=O)[C@@H](CC2CCCCC2)NCC(=O)O)cc1C(=N)N | 11 |
